{"source": "PubChem BioAssay AID1347120", "about": "(National Center for Advancing Translational Sciences (NCATS), 2019)", "note": "The entries are a selection whose mix differs from that of the whole data set. Inconclusive results are not listed. Active and inactive are the calls of the source. Calls follow the shape of the dose curve; as a rule, active = well fitted activation curve with a large enough effect; inconclusive = small, poorly fitted or top-dose-only effect; inactive = no such curve, though single readings can be large or run the other way.", "data": [{"test": "qHTS for Suppressors of FUS Proteinopathy: Primary screen using FUS-linked yeast assay;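 also: plate controls were DMSO vehicle for no effect and reference control for full effect; nearly all actives have a fitted effect of over 55% in size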", "conditions": "S. cerevisiae FUS-expressing, OD600, 24 h; at 76.6 µM (top of the series)", "from_the_text": "Several widespread neurodegenerative diseases, including Alzheimer disease, Huntington disease, Frontotemporal Lobar Degeneration (FTLD) and Amyotrophic Lateral Sclerosis (ALS), share a common pathological feature, namely accumulation of specific protein aggregates in diseased tissue. These diseases which is associated with protein misfolding (proteinopathies) have become increasingly problematic as the population ages and life expectancies are extended. Most proteinopathies are currently incurable, a situation confounded by the fact that the basis of neurodegeneration is generally poorly understood. There exists urgent and significant need to find therapeutics that can inhibit the toxicity associated with protein aggregation. A novel approach to understand the underlying mechanisms of neurodegenerative diseases has recently emerged in which the disease conditions are modeled in the yeast (Saccharomyces cerevisiae), a tractable eukaryotic organism with conserved protein quality control mechanisms. Yeast offers quick and reliable genetic manipulations and can be easily tailored to high-throughput screening (HTS).\nFor this project, a yeast model of the FUS proteinopathies (a spectrum of neurodegenerative diseases that include ALS and a subtype of FTLD) was generated and employed. The cytoplasmic accumulation of the DNA/RNA-binding protein FUS (also known as TLS) is causative to both familial and sporadic forms of ALS and FTLD. This yeast model recapitulates neuronal pathology by showing severe cytotoxicity associated with cytoplasmic accumulation of FUS aggregates and a specific interaction between FUS and TDP-43, another ALS-associated protein. […] Specifically, the cellular accumulation of misfolded FUS that disrupts RNA homeostasis in both yeast and higher eukaryotes. This model was validated to be suitable for quantitative HTS (qHTS) use for finding genetic or chemical factors that restore growth. […] Identified compounds that inhibits FUS-yeast toxicity is flagged, re-acquired, and validated for further investigation and optimization.\nNIH Chemical Genomics Center [NCGC]\nNIH Molecular Libraries Probe Production Centers Network [MLPCN]\nAssay Submitter (PI): Frank Shewmaker PhD, Uniformed Services University of the Health Sciences\nCompound CP55940 was used as the positive control. Column 1 was treated with CP55940 titration from 92uM (final concentration, 1:2 dilution), while Column 2 was treated with top dose 92uM. Columns 3 and 4 were treated with DMSO only as negative control to assess background and noise signal.\nFour hundred fifty microliter of cultured yeast (in 20mL rich medium) provided by Dr. Shewmaker lab was incubated at 30C at 99% humidity for 3hr. The culture was then spun down at 4000rpm for 5min and the cell pellet was resuspended in 2mL of Sdmin Media + ALU(330) + 2.5% Raffinose. One hundred microliter of the suspension was added to 900uL of water and OD of the solution was obtained. Twenty mL of responding medium (provided by Shewmaker lab) + 2.5% raffinose was added to ensure cell density of 0.1; the solution was incubated overnight. Working cell solution (FUS-yeast in Sdmi + Sdmi + 1X ALU + 2% galactose media) was prepared (final OD at 0.005) and 3uL was dispensed in a 1536-well Aurora high based clear bottom assay plates. Controls and library compounds (at various final concentrations from 40uM to 0.32uM) were added using a 1536-well pin array using the Kalypsys pin-tool. The plates were then incubated for 24hrs in a cell-culture incubator (30C; 99% humidity). Absorbance at 600nm was then read using the PerkinElmer ViewLux plate reader.", "values": [{"smiles": "CCC(C)N(CC(C)C)C(=S)SC(NC(C)=O)C(Cl)(Cl)Cl", "note": "(stereo unspecified)", "growth rescue (activation)": "inactive: 4.48%"}, {"smiles": "COC(=O)C1(C)COP(=O)(N2CCCC2)OC1", "note": "(stereo unspecified)", "growth rescue (activation)": "inactive: -23.6%"}, {"smiles": "COP1(=S)c2c(C)nn(CCC#N)c2N=C(c2ccc(F)cc2)N1C", "note": "(stereo unspecified)", "growth rescue (activation)": "inactive: -5.31%"}, {"smiles": "O=C(Nc1ccncc1[N+](=O)[O-])c1ccc([N+](=O)[O-])cc1[N+](=O)[O-]", "growth rescue (activation)": "inactive: -23.2%"}, {"smiles": "O=C(COc1ccccc1)OC1CN2CCC1CC2", "note": "(stereo unspecified)", "growth rescue (activation)": "inactive: 4.42%"}, {"smiles": "O=C(O)C(=O)c1ccc(N(CCCl)CCCl)cc1", "growth rescue (activation)": "inactive: -8.19%"}, {"smiles": "C[N+]1=C2C=CC=CC=C2SC12C([N+](=O)[O-])=CC([N+](=O)[O-])=C[C-]2[N+](=O)[O-]", "note": "(stereo unspecified)", "growth rescue (activation)": "inactive: 24.1%"}, {"smiles": "Nc1ccc([As](=O)(O)c2ccc(N)cc2)cc1", "growth rescue (activation)": "inactive: -18.2%"}, {"smiles": "CCN(/C(=N/P(=O)(N1CCOCC1)N1CCOCC1)N1CCOCC1)c1ccc(OC)cc1", "growth rescue (activation)": "inactive: 0.167%"}, {"smiles": "CC(C)=N/N=C(\\N)N[N+](=O)[O-]", "growth rescue (activation)": "inactive: 0.174%"}, {"smiles": "CC(C)c1nc(Nc2ccccc2)n(P(=O)(N(C)C)N(C)C)n1", "growth rescue (activation)": "inactive: -21.4%"}, {"smiles": "c1cc(-c2nn[nH]n2)ccc1-c1nn[nH]n1", "growth rescue (activation)": "inactive: -24.3%"}, {"smiles": "CC1CCN(C(=O)Oc2c(Cl)cc(Cl)c3cccnc23)CC1", "growth rescue (activation)": "inactive: 21.4%"}, {"smiles": "COc1ccc(C2=NCC(CBr)S2)cc1", "note": "(stereo unspecified)", "growth rescue (activation)": "inactive: 3.75%"}, {"smiles": "CC(=O)N1C2C3N(C(C)=O)C1C1N(C(C)=O)C(C(N1C(C)=O)N3C(C)=O)N2C(C)=O", "growth rescue (activation)": "inactive: 7.55%"}, {"smiles": "O=[N+]([O-])c1cccc2n[nH]nc12", "growth rescue (activation)": "inactive: 12.7%"}, {"smiles": "O=[N+]([O-])c1cc([N+](=O)[O-])c(CCNc2ccccc2)c([N+](=O)[O-])c1", "growth rescue (activation)": "inactive: 22.9%"}, {"smiles": "Cc1ccc(NP(=O)(Oc2ccccc2)Oc2ccccc2)nc1", "growth rescue (activation)": "inactive: 9.93%"}, {"smiles": "CC(C)(C)C(=O)NC(Sc1ccncn1)C(Cl)(Cl)Cl", "note": "(stereo unspecified)", "growth rescue (activation)": "inactive: 15.3%"}, {"smiles": "O=[N+]([O-])c1ncn(CCn2ncnc2[N+](=O)[O-])n1", "growth rescue (activation)": "inactive: -4.11%"}, {"smiles": "O=[N+]([O-])c1cccc(NC2=NCC(CBr)S2)c1", "note": "(stereo unspecified)", "growth rescue (activation)": "inactive: 3.98%"}, {"smiles": "O=C(O)CNc1ccc([As](=O)(O)O)cc1", "growth rescue (activation)": "inactive: -26.4%"}, {"smiles": "O=P1(N(CCCl)CCCl)OCCCS1", "note": "(stereo unspecified)", "growth rescue (activation)": "inactive: -0.738%"}, {"smiles": "O=C(Nc1cc([As](=O)(O)O)ccc1O)c1ccccc1", "growth rescue (activation)": "inactive: -27.1%"}, {"smiles": "CCN(N=Nc1nonc1N)c1nonc1N", "growth rescue (activation)": "inactive: -17.4%"}, {"smiles": "Nc1cccc2ccc([As](=O)(O)O)cc12", "growth rescue (activation)": "inactive: -29.3%"}, {"smiles": "CCCC1OP(N)(=O)OCC1CC", "note": "(stereo unspecified)", "growth rescue (activation)": "inactive: -10.5%"}, {"smiles": "O=C(O)c1ccccc1[As](=O)(O)O", "growth rescue (activation)": "inactive: 8.73%"}, {"smiles": "CC(=O)Nc1ccc([As](=O)(O)O)cc1", "growth rescue (activation)": "inactive: -7.86%"}, {"smiles": "CN(C)P(=O)(N(C)C)n1c(Nc2ccccc2)nnc1-c1ccccc1", "growth rescue (activation)": "inactive: 31.3%"}, {"smiles": "O=P(Nc1nc2ccc(Cl)cc2s1)(c1ccccc1)c1ccccc1", "growth rescue (activation)": "inactive: 25.4%"}, {"smiles": "CN(C(=O)Cc1ccc(Cl)c(Cl)c1)[C@H]1CCCC[C@@H]1N1CCCC1", "growth rescue (activation)": "inactive: -27.2%"}, {"smiles": "Cc1ccc(NP(=O)(Oc2ccccc2F)Oc2ccccc2F)nc1", "growth rescue (activation)": "inactive: 12%"}, {"smiles": "CCOP(=O)(Nc1ccccc1)OCC", "growth rescue (activation)": "inactive: 7.65%"}, {"smiles": "Cc1cc(SC(NC(=O)c2ccc(F)cc2)C(Cl)(Cl)Cl)ncn1", "note": "(stereo unspecified)", "growth rescue (activation)": "inactive: 12.1%"}, {"smiles": "CC(C)CC(=O)NC(Sc1ccc(Cl)cc1)C(Cl)(Cl)Cl", "note": "(stereo unspecified)", "growth rescue (activation)": "inactive: -10%"}, {"smiles": "Nc1cc(N)c2nonc2c1[N+](=O)[O-]", "growth rescue (activation)": "inactive: 29.4%"}, {"smiles": "O=C(NC(Sc1ccncn1)C(Cl)(Cl)Cl)c1ccccc1", "note": "(stereo unspecified)", "growth rescue (activation)": "inactive: 5.85%"}, {"smiles": "Oc1ccccc1CNc1ccccn1", "growth rescue (activation)": "inactive: -32.1%"}, {"smiles": "O=[N+]([O-])C1C(O)C(O)C([N+](=O)[O-])C(O)C1O", "note": "(stereo unspecified)", "growth rescue (activation)": "inactive: -22.5%"}, {"smiles": "NC(=O)c1cc([N+](=O)[O-])cc([N+](=O)[O-])c1N", "growth rescue (activation)": "inactive: 5.81%"}, {"smiles": "Cc1ccc(N/C(=N/P(=O)(N2CCOCC2)N2CCOCC2)N2CCOCC2)cc1", "growth rescue (activation)": "inactive: 18%"}, {"smiles": "CN(C(=O)Cc1ccc(Cl)c(Cl)c1)[C@H]1CCCC[C@H]1N1CCCC1", "growth rescue (activation)": "inactive: -36.7%"}, {"smiles": "Cc1ccc(OP(=O)(Nc2nccs2)Oc2ccc(C)cc2)cc1", "growth rescue (activation)": "inactive: -24.1%"}, {"smiles": "COc1ccccc1OP(=O)(Nc1ccc(C)cn1)Oc1ccccc1OC", "growth rescue (activation)": "inactive: 13.3%"}, {"smiles": "Clc1ccc(Cl)c(NC2=NCC(CBr)S2)c1", "note": "(stereo unspecified)", "growth rescue (activation)": "inactive: -0.0987%"}, {"smiles": "CN1CCCC(OC(=O)C(c2ccccc2)c2ccccc2)C1", "note": "(stereo unspecified)", "growth rescue (activation)": "inactive: 1.7%"}, {"smiles": "CC(=O)c1ccc(N2CC2c2ccncc2)cc1", "note": "(stereo unspecified)", "growth rescue (activation)": "inactive: -8.2%"}, {"smiles": "C[C@@H]1C=CCP(=O)(Oc2ccccc2)O1", "note": "(stereo partly specified)", "growth rescue (activation)": "inactive: -26.3%"}, {"smiles": "C[C@H]1OP(=O)(Oc2ccccc2)C[C@@H]2O[C@@H]21", "note": "(stereo partly specified)", "growth rescue (activation)": "inactive: -13.2%"}, {"smiles": "CC(=O)Nc1ccc(Oc2c([N+](=O)[O-])cc([N+](=O)[O-])cc2[N+](=O)[O-])cc1", "growth rescue (activation)": "inactive: 26.2%"}]}]}
